Results from ChEMBL document CHEMBL1641497, “A potent and selective indole N-type calcium channel (Ca(v)2.2) blocker for the treatment of pain” (Bioorg Med Chem Lett, 2011).

Tested on: hERG (Homo sapiens)
Assay: Blockade of hERG channel at 10 uM by displacement of MK-0499 binding

COCCn1c(-c2cc(C)cc(C)c2)cc2cc(C(C)(C)C(=O)NC(C)(C)C)ccc21 was tested, and the inhibition at 10 µM was 81%.
